A short description of this data set: survival / late mortality of guinea-pigs treated in the broncholitic activity test (48 hours, oral route). The note with it: guinea pig, in vivo.

Regarding `Cn1c(=O)c2[nH]cnc2n(C)c1=O` [Aminophilline, reference compound], the survival at 48 h is, setting by setting: (50 mg/kg) 84%; (75 mg/kg) 84%; (100 mg/kg) 50%; (150 mg/kg) 10%.

Values taken from US3975389A, “Caffeine derivatives” (priority 1973, dated 1976).
